{"source": "patent US9771592B2", "about": "“Methods and compositions for treating or preventing pruritis” (The Johns Hopkins University, priority 2008, dated 2017)", "test_system": "rat DRG neurons", "assay": "Calcium imaging of cultured rat DRG neurons"}
{"smiles": "CCN(CC)CCCC(C)Nc1ccnc2cc(Cl)ccc12", "note": "(stereo not shown) [CQ, Chloroquine]", "values": [{"measurement": "percentage of total rat DRG neurons responding", "value": 15, "unit": "%"}]}
